Tested on: APMEE explants
Assay: APMEE explant culture, cardiac gene expression by RT-PCR
Assay type: cell-based, chick
Source text: FIG. 1, panels A-D, illustrates the relative positions of tissues employed in this study. […] We dissected anterior paraxial mesendoderm and ectoderm (APMEE; FIG. 1C) from stage 8-9 chick embryos and cultured this tissue either alone or in the presence of the adjacent neural tube and notochord (FIG. 1E). When cultured in the presence of the axial tissues, APMEE explants neither beat nor expressed the cardiac markers Nkx-2.5, GATA-4, vMHC, and cMHC-1 (FIG. 1G, lane 1). The latter gene is a chick myosin heavy-chain isoform expressed exclusively within the heart (Croissant et al. 2000). […] Although anterior paraxial mesoderm is fated to give rise to both head mesenchyme and skeletal muscles (Christ and Ordahl 1995), the skeletal muscle regulators, MyoD and Myf-5, were not expressed in APMEE explants that expressed cardiac markers after 48 h culture in vitro (FIG. 1G, lane 2). Thus, after 48 h in culture, explanted APMEE gives rise to cardiac but not skeletal muscle tissue. […]
Wnt-1 and Wnt-3a are expressed in the open neural plate and dorsal neural tube adjacent to the anterior paraxial mesoderm (FIG. 2, panels A, B). […] In addition to expression of Wnt family members in the neural tube, we detected expression of Frizzled-1, β-catenin, and Lef1, all of which are components of the Wnt signaling cascade, in APMEE explants (FIG. 1G, lanes 1, 2). […]

B1: BMP-2: Human recombinant BMP-2 (protein, UniProt P12643 283-396, looked up)
Bone morphogenetic protein 2: QAKHKQRKRLKSSCKRHPLYVDFSDVGWNDWIVAPPGYHAFYCHGECPFPLADHLNSTNHAIVQTLVNSVNSKIPKACCVPTELSAISMLYLDENEKVVLKNYQDMVVEGCGCR
- Cardiogenic response / cardiac marker expression (APMEE cultured with only the dorsal neural tube): induced GATA-4 and Nkx2.5 yet failed to elicit expression of cMHC-1
- Cardiac marker expression (Nkx-2.5, GATA-4, vMHC, cMHC-1) (APMEE plus neural tube and notochord explants, 48 h): induced higher levels of Nkx-2.5 but, similarly, failed to induce expression of either GATA-4 or vMHC

From patent US20040014209A1, “Compositions and methods for modulating cell differentiation” (priority 2002, published 2004)
